Screens (PubChem BioAssay)
The list is not random: actives were taken first. Their share in the collection is about 16%.
TDP1 inh: TDP1 (human) enzyme inhibition | Q9NUW8 | recombinant TDP1, AlphaScreen DNA substrate cleavage | Potency, µM (top dose mostly 130 µM), without a hit: at the top dose activity change, negative = inhibition, hits mostly inhibitors | 350,000 tested, 0.28% active | AID 485290; also: potency is read from the fitted curve at half-maximal effect; % is scaled to controls: 0 for no effect and ±100 for the full control effect; nearly all actives have a fitted effect of over 40% in size
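Compounds were preincubated with Tdp1 (1 nM final) for 15 min at room temperature before substrate (15 nM final) started a 5 min reaction; beads (10 ug/ml final) were then added for 10 min before AlphaScreen detection.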
miR-21 reporter: miR-21 reporter, rising signal | HeLa miR-21 FLuc reporter, luciferase, 48 h | Potency, µM (top dose mostly 38.3 µM), inactives show at the top dose reporter change, positive = more light | 340,000 tested, under 10 active | AID 2288; active = well fitted rising curve with a large enough effect; inconclusive = small, poorly fitted or top-dose-only effect; inactive = no such curve, though single readings can be large or run the other way;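 further: % of control where 0% means no effect; miR-21 action dims this reporter so a rising signal means less miR-21 action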
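Compounds were titrated across several concentrations (up to approximately 40 uM) and incubated 48 hours with HeLa miR-21-FLuc reporter cells (miR-21 target sequence downstream of FLuc, endogenous miR-21). Readout was firefly luciferase luminescence after lytic detection reagent.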
uPA generation: inhibitors of cell surface uPA generation. cell surface uPA generation assay, qHTS. Potency, µM (titrated, usually from 38.3 µM), without a hit: at the top dose activity change, negative = inhibition, most hits filed as inhibitors. 330,000 tested, 0.31% active; active = well fitted inhibition curve with a large enough effect; inconclusive = small, poorly fitted or top-dose-only effect; inactive = no such curve, though single readings can be large or run the other way; tested in mouse RAW 264.7 cells; also: potency is read from the fitted curve at half-maximal effect; % is scaled to controls: 0 for no effect and ±100 for the full control effect; nearly all actives have a fitted effect of over 55% in size
TDP1 cell noCPT: qHTS for Inhibitors of human tyrosyl-DNA phosphodiesterase 1 (TDP1): qHTS in cells in absence of CPT; DT40 Tdp1-/- hTDP1 cells, no CPT, ATP luminescence, 48 h; Potency, µM (titrated, usually from 46.2 µM), for inactives: at the top dose activity change, negative = growth inhibition, actives largely listed as inhibitors; 420,000 tested, 15% active; AID 686978, 2013; also: potency is read from the fitted curve at half-maximal effect; % is scaled to controls: 0 for no effect and ±100 for the full control effect; nearly all actives have a fitted effect of over 55% in size
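Seeded 400 DT40-hTDP1 cells/well (vehicle DMSO, no 20 nM CPT); pinned compounds; ≥48 hr at 37 °C; CellTiter-Glo luminescence as viability measure.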
TDP1 cell CPT: growth inhibition of DT40 Tdp1-/-;hTDP1 cells with camptothecin (screen for TDP1 inhibitors); chicken DT40 Tdp1-/-;hTDP1 cells + 20 nM CPT, ATP luminescence, 48 h; Potency, µM (highest dose often 46.2 µM), for inactives: at the top dose activity change, negative = growth inhibition, hits mostly inhibitors; 420,000 tested, 12% active; AID 686979; also: potency is read from the fitted curve at half-maximal effect; % is scaled to controls: 0 for no effect and ±100 for the full control effect; nearly all actives have a fitted effect of over 55% in size
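Chicken DT40 Tdp1-/- cells complemented with human TDP1, 400 cells/well, exposed to compounds plus 20 nM camptothecin for at least 48 h at 37 C; viability read as ATP content by CellTiter-Glo luminescence.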
Numbers without * were called inactive; ? = inconclusive; · = no result; [ ] = another dose, or the depositor's remark. Unless noted, calls follow the shape of the dose curve; as a rule, active = well fitted curve in the direction sought with a large enough effect; inconclusive = small, poorly fitted or top-dose-only effect, or another doubt; inactive = no such curve, though single readings can be large; an effect the other way counts as inactive or inconclusive.

SMILES	TDP1 inh	miR-21 reporter	uPA generation	TDP1 cell noCPT	TDP1 cell CPT
CC1CCCN(C(=O)c2ccc(COc3ccccc3Br)cc2)C1 (stereo not given)	-6%	-20%	-2%	?	?
CN1CCN(S(=O)(=O)c2cccc(S(=O)(=O)c3ccc(Cl)cc3)c2)CC1	3%	6%	·	16µM*	?
Cc1ccc(S(=O)(=O)c2cccc(S(=O)(=O)N3CCCC3)c2)cc1S(=O)(=O)N1CCCC1	-2%	18%	·	18µM*	21µM*
O=S(=O)(c1ccccc1)c1cccc(S(=O)(=O)N2CCCCC2)c1	6%	8%	9%	?	?
CCN(c1ccccc1)S(=O)(=O)c1ccc(C(=O)NNC(=O)c2ccccc2F)cc1	1%	·	-19%	-14%	-20%
CCN(c1ccccc1)S(=O)(=O)c1cc(C(=O)Nc2ccc(F)c(F)c2)ccc1F	-6%	?	-14%	?	23µM*
CCN(c1ccccc1)S(=O)(=O)c1cc(C(=O)O)ccc1C	22µM*	-4%	5%	-6%	14%
CCN(c1ccccc1)S(=O)(=O)c1ccc(F)c(C(=O)Nc2ccc(C)cc2)c1	5%	26%	·	12µM*	9.2µM*
CC(=O)N1CCc2cc(S(=O)(=O)N3CC(C)CC(C)C3)ccc21 (stereo not given)	3%	2%	1%	-18%	?
c1ccc2c(NCCc3c[nH]c4ccccc34)c3ccccc3nc2c1	·	?	?	2.9µM*	2.6µM*
OCCCNc1c2ccccc2nc2ccccc12	·	?	-5%	9.2µM*	12µM*
Cc1ccc(-c2nc(NCCCO)c3ccccc3n2)cc1	3%	-3%	-6%	?	?
Fc1cccc(NCCc2c[nH]c3ccccc23)n1	·	-29%	?	?	-27%
O=C(c1ccccc1)c1ccc(C(=O)O)c(C(=O)O)c1	·	·	6%	10%	-4%
Clc1ccccc1OCc1nc(-c2ccccn2)no1	4%	-12%	4%	?	-19%
Clc1ccc(OCc2nc(-c3ccccn3)no2)c(Br)c1	3%	-13%	3.5µM*	?	-23%
CC1CCCN(c2c([N+](=O)[O-])c(=O)oc3ccccc23)C1 (stereo not given)	6%	1%	·	?	16µM*
O=c1oc2ccccc2c(N2CCC(c3ccccc3)CC2)c1[N+](=O)[O-]	2%	-1%	5%	?	-22%
CC(C)c1ccc(C(N)=S)cc1	5%	-13%	1%	26µM*	0%
COc1cc2c(cc1OC)CN(c1ccc(-c3ccccc3OC)nn1)CC2	4%	-10%	-11%	23µM*	?
COc1cc(C(=O)COC(=O)C2CCN(c3ccc(C(F)(F)F)cn3)CC2)ccc1OC(F)F	-9%[0.505 µM]	·	-2%	-27%	-27%
COc1ccccc1-c1cc(-n2ccnc2)ncn1	·	·	·	-4%	-2%
COc1cc2c(cc1OC)CN(c1ccc(C(F)(F)F)cn1)CC2	-2%	-32%	-5%	16µM*	?
O=C1c2ccccc2-c2cccc(C(=O)N3CCN(C(=O)c4ccccc4)CC3)c21	5%	-2%	7%	-1%	-3%
O=C(c1ccccc1)c1ccc(Oc2ccc([N+](=O)[O-])cc2[N+](=O)[O-])cc1	·	·	-15%	?	?
O=Cc1cccc(Oc2ccc([N+](=O)[O-])cc2[N+](=O)[O-])c1	5%	?	?	7.3µM*	?
Cc1cc(=O)oc2cc(Oc3ccc([N+](=O)[O-])cc3[N+](=O)[O-])ccc12	6%	-2%	-10%	4.6µM*	5.2µM*
Cc1cc(=O)oc2cc(Oc3ncccc3[N+](=O)[O-])ccc12	-1%	-2%	·	-9%	23%
CC(C)=CC1C(C(=O)NCCOc2ccccc2)C1(C)C (stereo not given)	·	8%	2%	?	?
COCCNC(=O)c1cccc2c(-c3cnn(C)c3)coc12	·	·	·	-20%	-13%

An excerpt of these results, in markdown:
| canonical_smiles | TDP1 inh | miR-21 reporter | uPA generation | TDP1 cell noCPT | TDP1 cell CPT |
| --- | --- | --- | --- | --- | --- |
| CCN(c1ccccc1)S(=O)(=O)c1cc(C(=O)O)ccc1C | 22µM* | -4% | 5% | -6% | 14% |
| CCN(c1ccccc1)S(=O)(=O)c1ccc(F)c(C(=O)Nc2ccc(C)cc2)c1 | 5% | 26% | · | 12µM* | 9.2µM* |

In a second layout: results already given.
Under each structure: TDP1 inh | miR-21 reporter | uPA generation | TDP1 cell noCPT | TDP1 cell CPT
- COc1cc2c(cc1OC)CN(c1ccc(C(F)(F)F)cn1)CC2
    -2% | -32% | -5% | 16µM* | ?
- O=C1c2ccccc2-c2cccc(C(=O)N3CCN(C(=O)c4ccccc4)CC3)c21
    5% | -2% | 7% | -1% | -3%
- O=C(c1ccccc1)c1ccc(Oc2ccc([N+](=O)[O-])cc2[N+](=O)[O-])cc1
    · | · | -15% | ? | ?
